Experimental data published in patent US8624027B2, “Combination therapy for treating cancer and diagnostic assays for use therein” (AbbVie Inc., priority 2005, dated 2014).

Sequences of proteins named here, by UniProt entry; tags and fusion partners are left off. A line that says so, or that is headed by a name, gives the form on record, which may keep a tag or linker.
UniProt P10415, with tags, fused parts or gaps with the stated changes: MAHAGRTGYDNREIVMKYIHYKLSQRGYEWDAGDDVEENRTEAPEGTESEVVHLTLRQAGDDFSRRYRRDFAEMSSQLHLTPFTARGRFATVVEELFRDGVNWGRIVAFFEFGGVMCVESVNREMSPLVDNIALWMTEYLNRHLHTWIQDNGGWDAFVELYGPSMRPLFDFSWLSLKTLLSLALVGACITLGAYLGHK

Target: T1, Bcl-2 protein (Homo sapiens, UniProt P10415, DELINS35-91DVEENRTEAPEGTESE, form not given)
T1 construct: fused on or other part: A short piece of the Bcl-xL (Q07817) loop replaces Bcl-2 loop residues 35-91; The C-terminal membrane anchor is absent
Assay: Bcl-2 binding affinity, fluorescence polarization with fluorescein-labeled BAX peptide
Conditions: Wang's equation, read-out: Target Binding Affinity Ki (Bcl-2)
Protocol: Binding affinity of compounds having formula (II) to Bcl-2 protein is indicia of their inhibition of the activity of this protein. […] A mixture comprising 125 µL per well of assay buffer (20 mM phosphate buffer (pH 7.4), 1 mM EDTA, 50 mM NaCl, 0.05% PF-68), 10 nM of Bcl-2 protein (prepared according to the procedure described in PNAS 2001, 98, 3012-3017), 1 nM fluorescein-labeled BAX peptide (prepared in-house) and the DMSO solution of the representative EXAMPLE was shaken for 2 minutes and placed in a LJL Analyst (LJL Bio Systems, CA. Polarization was measured at room temperature using a continuous Fluorescein lamp (excitation 485 nm, emission 530 nm). The results are also shown in TABLE 1.
The compounds of interest and the internal standard were separated from each other and co-extracted contaminants on a 50×3 mm Keystone Betasil CN 5 μm column with an acetonitrile: 0.1% trifluoroacetic acid mobile phase (50:50, by volume) at a flow rate of 0.7 ml/min. Analysis was performed on a Sciex API 300™ Biomolecular Mass Analyzer using a heated nebulizer interface. Peak areas of the title compounds and internal standards were determined using the Sciex MacQuan™ software. […] The methods were generally linear over the range of the standard curve (correlation coefficients >0.99) with an estimated quantitation limit of 0.01 μg/mL. […]

- Ki: ≤ 1 nM
Structure (SMILES): CC1(C)CCC(c2ccc(Cl)cc2)=C(CN2CCN(c3ccc(C(=O)NS(=O)(=O)c4ccc(N[C@H](CCN5CCOCC5)CSc5ccccc5)c(S(=O)(=O)C(F)(F)F)c4)cc3)CC2)C1 [Example 1, N-(4-(4-((2-(4-chlorophenyl)-5,5-dimethyl-1-cyclohex-1-en-1-yl)methyl)piperazin-1-yl)benzoyl)-4-(((1R)-3-(morpholin-4-yl)-1-((phenylsulfanyl)methyl)propyl)amino)-3-((trifluoromethyl)sulfonyl)benzenesulfonamide]
